Screening results: PubChem, ICCB-Longwood Screening Facility, Harvard Medical School
HCMV UL50-53 inh: cytomegalovirus nuclear egress complex inhibition; HTRF UL50-UL53 interaction, normalized percent inhibition; AID 1918969; 190,000 compounds, 0.15% hits; inhibition, % (test concentration not listed); in the data active means inhibition above about 27%, passing the limit was not always enough
GIV Gai3 FP: blocks GIV peptide binding to rat Galpha-i3. P08753. Galpha-i3/FITC-GIV peptide fluorescence polarization, 90 min; stronger effect = lower value; scaled: aluminum fluoride 0%, vehicle 100%. percent of control (FP), % (concentration not given with the values). hit rate 0.42% among 210,000. AID 1224905;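 active means replicate mean at 85% of control or lower, very high polarization wells dropped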;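 further: wells of about 15 µL received 100 nL stock; the first replicate is given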
GIV-Gai FP conf: confirmation of inhibitors of GIV binding to rat Galpha-i3. FITC-GIV peptide binding to Galphai3, fluorescence polarization; active compounds read low. 580 compounds, 38% hits. fluorescence polarization, mP at 100 µM. shares compounds with GIV Gai3 FP;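 active means inhibition score of 15 or more, meaning 100 minus mean polarization as percent of control over three replicates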;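 further: lower mP means peptide displaced from Galphai3 so more inhibition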
GIV Gai AS conf: confirmation of inhibitors of GIV binding to human Galpha-i3; shares compounds with GIV Gai3 FP; AlphaScreen Galphai3-GIV binding, purified proteins, 90 min; active compounds read low; AlphaScreen counts at 100 µM; 580 compounds, 39% hits; AID 1259351;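 active means inhibition score at or above a set limit, where the score is 100 minus the three-replicate mean percent of control signal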
The depositor's hits bear a star; . = not tested or not shown. The full list was thinned out, with hits kept by preference.

#	Compound	HCMV UL50-53 inh	GIV Gai3 FP	GIV-Gai FP conf	GIV Gai AS conf
1	Cc1ccc(/C=C2\SC(=O)NC2=O)o1	-55	.	.	.
2	Cc1ccc(/C=C2/SC(=O)NC2=S)o1	.	80*	57*	2262*
3	CC1CCCN(C(=O)[C@H]2[C@@H]3C[C@@H]4[C@H]2C(=O)O[C@@H]4C3)C1 (some centres not stated)	-19	109	.	.
4	CC1=C(C#N)C(=O)N(CCc2ccccc2)C(=O)/C1=C\c1ccc(-c2cccc(Cl)c2)o1	-20	101	.	.
5	CC1=C(C#N)C(=O)N(C)C(=O)/C1=C/c1ccc(-c2cccc(Cl)c2C)o1	-52	106	.	.
6	CC1=C(C#N)C(=O)N(C)C(=O)/C1=C/c1ccc(-c2ccccc2C(=O)O)o1	-28	84*	68	2072*
7	C=CCN1C(=O)C(C#N)=C(C)/C(=C\c2ccc(-c3cccc(C(=O)O)c3)o2)C1=O	-6	83*	79	2591*
8	O=C1C=C(SCC(=O)Nc2ccc(Cl)cc2)SC(c2ccccc2)C1 (configuration not stated)	2	102	.	.
9	COc1ccc(C2CC(c3ccccc3)=NN2C(=O)COc2ccc(-n3cnnn3)cc2)cc1 (configuration not stated)	-5	.	.	.
10	C=CCNC(=O)Cc1c(O)c2ccccc2[nH]c1=O	-20	97	.	.
11	COc1cccc(C2Nc3ccc(C)cc3[C@H]3OCC[C@@H]23)c1OC1CCCC1 (some centres not stated)	.	101	.	.
12	COc1cc(NC(=O)Cn2c(C)cc(C)c(S(=O)(=O)c3ccc(Cl)cc3)c2=O)cc(OC)c1	-10	118	.	.
13	S=C1NCc2ccsc2S1	-242	49*	51*	31760*
14	Cc1ccccc1/C=C(\C#N)C(=O)OC(C)(C)C	-26	101	.	.
15	CCOC(=O)c1cccc(NC(=O)c2sc3nc[nH]c(=O)c3c2C)c1	.	92	78	34553
16	CCOC(=O)c1sc2nc[nH]c(=O)c2c1C	.	103	.	.
17	O=C(O)CNC(=O)COc1cccc2ccccc12	-16	.	.	.
18	O=C(CSc1nnc2c3sc(N4CCCC4)nc3ncn12)Nc1ccc(F)c(F)c1	.	110	.	.
19	O=C(CSc1nnc2c3sc(N4CCCC4)nc3ncn12)Nc1ccc2c(c1)OCO2	.	30*	83	27926
20	CCOC(=O)/C(C#N)=C\c1cc2ccc(OC)cc2[nH]c1=O	-59	56*	82	26623
21	COc1cccc(C(=O)NCCc2cc3ccc(OC)cc3[nH]c2=O)c1	-19	107	.	.
22	Cc1c(CN2CCCC(C)C2)nnn1-c1ccc(F)cc1 (configuration not stated)	.	101	.	.
23	COc1ccccc1C1C(C(=O)OCC(N)=O)CCC(=O)N1c1ccc(C)cc1 (configuration not stated)	-26	.	.	.
24	O=c1[nH]c(-c2ccc(O)cc2)nc2ccccc12	-18	88	69	45426
25	Cc1ccc(-c2nc3ccccc3c(=O)[nH]2)cc1	-11	101	.	.
26	N/C(=N\OC(=O)c1cnc2n(c1=O)CCS2)c1ccc(C(F)(F)F)cc1	5	105	.	.
27	O=C(O)c1cnc(N2CCC(Cc3ccccc3)CC2)c(NS(=O)(=O)c2ccccc2)c1	-23	99	.	.
28	O=C(O)c1cnc(N2CCOCC2)c(NS(=O)(=O)c2ccccc2)c1	-29	49*	36*	30970
29	CCC1C/C(=C\c2ccc(Br)cc2)C(=O)/C(=C/c2ccc(Br)cc2)C1 (configuration not stated)	.	99	.	.
30	CCC1C/C(=C\c2ccc(OCC(N)=O)cc2)C(=O)/C(=C/c2ccc(OCC(N)=O)cc2)C1 (configuration not stated)	.	89	75	15830*
31	CCC(=O)Nc1cc2nc3[nH]c(=O)n(C)c(=O)c3nc2cc1C	-162	21*	46*	34033
32	CCCCCCC(=O)Nc1cc2nc3[nH]c(=O)n(C)c(=O)c3nc2cc1C	-64	100	.	.
33	O=C(CSc1ccccc1C(=O)O)Nc1cccc(C(F)(F)F)c1	-10	.	.	.
34	CC(=O)O/N=C1\Sc2ccccc2C1=O	19	68*	66	29965*
35	COc1ccc(N(/N=C2\Sc3ccccc3C2=O)C(C)=O)cc1	-3	110	.	.
36	Nc1cccnc1NCc1ccccc1	.	181	.	.
37	CC(=O)Nc1ccc2nc3c(=O)[nH]c(=O)[nH]c3nc2c1	-146	66*	58*	5170*
38	CC(=O)Nc1ccc2sc(C)nc2c1	-18	101	.	.
39	CCCCCCC(=O)Nc1ccc2nc3c(=O)[nH]c(=O)[nH]c3nc2c1	-124	83*	44*	16182*
40	CCCC(=O)Nc1ccc2[nH]c(=O)[nH]c2c1	-2	.	.	.
41	COc1ccc(/C=C2/C(=O)NN=C2N)cc1	8	.	.	.
42	Cc1nn(C)cc1CN1CCCC1c1c(C)noc1C (configuration not stated)	.	108	.	.
43	C=CCn1c(=O)/c(=C/c2ccc(-c3ccc(Br)cc3)o2)s/c1=C(/C#N)c1nnc2n1CCCCC2	8	.	.	.
44	O=C(/C=C/c1cccs1)Nc1cccc(C(F)(F)F)c1	-22	.	.	.
45	CCOc1ccc2c(c1)C(=O)c1cc(OCC(=O)OC)ccc1-2	.	128	.	.
46	CCCOc1ccc2c(c1)C(=O)c1cc(OCC(=O)O)ccc1-2	-181	80*	73	54581
47	CN1C(C(=O)c2ccccc2)=C(NC(=O)c2ccccc2)c2ccccc2S1(=O)=O	-5	67*	66	42284
48	CCN1C(C(=O)c2ccccc2)=C(NC(=O)c2ccc(Cl)cc2)c2ccccc2S1(=O)=O	-2	104	.	.
49	Cc1ccc(C)n1-c1ccsc1C(=O)O	-20	65*	11*	1766*
50	Cc1cc(C)n(-c2cc(C(=O)O)ccc2C)n1	21	100	.	.

From entry 44 up to 50, copied from above:
#	Compound	HCMV UL50-53 inh	GIV Gai3 FP	GIV-Gai FP conf	GIV Gai AS conf
44	O=C(/C=C/c1cccs1)Nc1cccc(C(F)(F)F)c1	-22	.	.	.
45	CCOc1ccc2c(c1)C(=O)c1cc(OCC(=O)OC)ccc1-2	.	128	.	.
46	CCCOc1ccc2c(c1)C(=O)c1cc(OCC(=O)O)ccc1-2	-181	80*	73	54581
47	CN1C(C(=O)c2ccccc2)=C(NC(=O)c2ccccc2)c2ccccc2S1(=O)=O	-5	67*	66	42284
48	CCN1C(C(=O)c2ccccc2)=C(NC(=O)c2ccc(Cl)cc2)c2ccccc2S1(=O)=O	-2	104	.	.
49	Cc1ccc(C)n1-c1ccsc1C(=O)O	-20	65*	11*	1766*
50	Cc1cc(C)n(-c2cc(C(=O)O)ccc2C)n1	21	100	.	.

Other structures follow:
#	Compound	HCMV UL50-53 inh	GIV Gai3 FP	GIV-Gai FP conf	GIV Gai AS conf
51	Cc1ccc(C(=O)O)cc1-n1c(C)ccc1C	-3	67*	54*	3689*
52	Cc1ccc(C)n1-c1ccc(C(=O)O)cc1O	56*	31*	50*	3903*
53	Cc1ccc(C)n1-c1ccsc1C(=O)CC#N	-15	97	.	.
54	Cc1cc(=O)cc(C)n1-c1ccccc1O	-3	.	.	.
55	COC(=O)C(CC(C)C)NC(=O)c1c(-c2c(Cl)cccc2Cl)noc1C (configuration not stated)	-21	104	.	.
56	Cn1cccc1C=NN1CCN(C2c3ccccc3-c3ccccc32)CC1	-10	.	.	.
57	CC1(C)CC(=O)C2=C(C1)Nc1ccccc1S2	-52	78*	70	61627
58	CC1(C)CC(=O)C2=C(C1)Nc1ccccc1NC2c1ccccc1F (configuration not stated)	1	103	.	.
59	CCOc1cc(/C=C2/C(=N)N3C(c4ccccc4)=CSC3=NC2=O)ccc1OCCOc1cccc(C)c1	.	111	.	.
60	CSc1nc(C)nc(Sc2ccccc2)c1C#N	10	125	.	.
61	N#Cc1c(Sc2ccccc2)ncc2cc3ccccc3nc12	-20	79*	67	50621
62	CCCn1c(N)c(N(CCOC)C(C)=O)c(=O)n(CC(=O)Nc2cc(Cl)cc(Cl)c2)c1=O	-1	.	.	.
63	CCC(Oc1ccccc1)C(=O)Nc1cc(Cl)ccc1OCc1cc(=O)n2oc(C)cc2n1 (configuration not stated)	.	105	.	.
64	COc1cccc(CNC(=O)C2CCCN2c2nnc(N3CCCCC3=O)s2)c1 (configuration not stated)	-12	87	79	26734
